Laboratory results published in US20060067959A1, “Compositions and methods for treatment of solar damage” (priority 2004, published 2006).

Tested on: NIH 3T3 cells
Method: NIH 3T3 cells were used in these studies. Cells were cultured in 24-well plates at a density of […] in 10% FBS/DMEM overnight. […] Cells were incubated for 72 hours before cell counting and morphological studies.

Q: proanthocyanidin was tested. Which “cytotoxicity (FIG. 1 legend)” value did it give?
A: lack of cytotoxicity

Q: What about the “toxicity relative to glutaraldehyde (less toxic)” value of the same substance?
A: about 120 times
